Measurements as given in patent US11628148B2, “Nail hardening composition and method of use” (WELLA OPERATIONS US, LLC, priority 2017, dated 2023).

Experiment: Behaviour of the test solution at the highest concentration prepared
Assay type: physicochemical
Settings: 10% (w/w) HMD + MA 1:2 in ethanol

## Hexamethylene diamine/Maleic acid [Hexamethylene diamine + Maleic acid]
  Observation on the solution: Strong Polymerization
Listed as COMPOSITION example 1
  Observation on the solution: strong precipitation
